Patent US20250270172A1

Amino acid sequences for entries named in this document (tags omitted).
UniProt P28223, whole entry: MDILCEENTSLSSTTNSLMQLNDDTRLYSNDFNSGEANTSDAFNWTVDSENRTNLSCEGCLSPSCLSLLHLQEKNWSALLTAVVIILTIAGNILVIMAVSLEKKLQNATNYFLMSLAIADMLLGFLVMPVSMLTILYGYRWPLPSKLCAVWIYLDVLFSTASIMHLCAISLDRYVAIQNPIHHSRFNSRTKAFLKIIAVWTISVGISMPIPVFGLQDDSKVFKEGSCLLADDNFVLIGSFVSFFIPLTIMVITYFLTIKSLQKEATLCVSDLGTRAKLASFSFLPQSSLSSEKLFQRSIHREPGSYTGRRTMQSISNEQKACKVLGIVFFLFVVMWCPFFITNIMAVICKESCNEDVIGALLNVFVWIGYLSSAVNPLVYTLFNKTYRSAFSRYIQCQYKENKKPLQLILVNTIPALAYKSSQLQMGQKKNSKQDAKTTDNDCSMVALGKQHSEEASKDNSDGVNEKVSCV

Molecular target: 5-HT2A (Homo sapiens (Human), UniProt P28223)
Experiment: Radioligand binding assay, [^3H]5-HT competition, 5-HT2A
Details: read-out: 5-HT2A serotonin binding Ki value; [^3H]5-HT radioligand, membranes of HEK293 cells expressing recombinant 5-HT2A; Ki from IC50 by Cheng-Prusoff

Cc1ncnc(C)c1-c1cc(NC(=O)c2cnsc2)ccc1OCCN1CCCC1
Ki: 8.14 nM
